From patent publication US9451774B2, “Paddy rice seed treated by herbicidal composition and method for controlling weed” (MITSUI CHEMICALS AGRO, INC., priority 2013, dated 2016)

Tested on: Paddy rice (variety: Nipponbare)
Assay: Test Example 5: pot test, growth inhibition of the paddy rice
Assay type: in vivo
Settings: 20 days after sowing, dosage a.i. g per 1 kg of seeds: Sulcotrione 1.0, Imazosulfuron 1.0, Oxadiargyl 0.15

oxadiargyl
Growth inhibition rate, Paddy rice (Sowing into soil (depth 1 cm)): 9 (Growth inhibition rate of 82 to 90%) | Growth inhibition rate, Paddy rice (Surface sowing): 7 (Growth inhibition rate of 64 to 72%)
